Here are results for 1 molecule from ChEMBL document CHEMBL2157975 (Bioorg Med Chem Lett, 2012).

The experiment addresses Type-1 angiotensin II receptor (Homo sapiens, UniProt P30556). Description: Inhibition of AT1 receptor.

The term IC50 denotes the midpoint of a concentration-inhibition curve.

Bounds are passed on as bounds.

`Cc1ccnc(SCc2cc(=O)c(OC(=O)c3ccc(Cl)c([N+](=O)[O-])c3)co2)n1` showed an IC50 of more than 79 µM.
